Assay results as given in patent US9126947B2, “Substituted pyridazine carboxamide compounds” (Xcovery Holding Company LLC, priority 2010, dated 2015).

Chains of the proteins cited; added tags and fusions are not shown. Residues count along the entry.
UniProt Q9UM73, 19-1620 limits assumed: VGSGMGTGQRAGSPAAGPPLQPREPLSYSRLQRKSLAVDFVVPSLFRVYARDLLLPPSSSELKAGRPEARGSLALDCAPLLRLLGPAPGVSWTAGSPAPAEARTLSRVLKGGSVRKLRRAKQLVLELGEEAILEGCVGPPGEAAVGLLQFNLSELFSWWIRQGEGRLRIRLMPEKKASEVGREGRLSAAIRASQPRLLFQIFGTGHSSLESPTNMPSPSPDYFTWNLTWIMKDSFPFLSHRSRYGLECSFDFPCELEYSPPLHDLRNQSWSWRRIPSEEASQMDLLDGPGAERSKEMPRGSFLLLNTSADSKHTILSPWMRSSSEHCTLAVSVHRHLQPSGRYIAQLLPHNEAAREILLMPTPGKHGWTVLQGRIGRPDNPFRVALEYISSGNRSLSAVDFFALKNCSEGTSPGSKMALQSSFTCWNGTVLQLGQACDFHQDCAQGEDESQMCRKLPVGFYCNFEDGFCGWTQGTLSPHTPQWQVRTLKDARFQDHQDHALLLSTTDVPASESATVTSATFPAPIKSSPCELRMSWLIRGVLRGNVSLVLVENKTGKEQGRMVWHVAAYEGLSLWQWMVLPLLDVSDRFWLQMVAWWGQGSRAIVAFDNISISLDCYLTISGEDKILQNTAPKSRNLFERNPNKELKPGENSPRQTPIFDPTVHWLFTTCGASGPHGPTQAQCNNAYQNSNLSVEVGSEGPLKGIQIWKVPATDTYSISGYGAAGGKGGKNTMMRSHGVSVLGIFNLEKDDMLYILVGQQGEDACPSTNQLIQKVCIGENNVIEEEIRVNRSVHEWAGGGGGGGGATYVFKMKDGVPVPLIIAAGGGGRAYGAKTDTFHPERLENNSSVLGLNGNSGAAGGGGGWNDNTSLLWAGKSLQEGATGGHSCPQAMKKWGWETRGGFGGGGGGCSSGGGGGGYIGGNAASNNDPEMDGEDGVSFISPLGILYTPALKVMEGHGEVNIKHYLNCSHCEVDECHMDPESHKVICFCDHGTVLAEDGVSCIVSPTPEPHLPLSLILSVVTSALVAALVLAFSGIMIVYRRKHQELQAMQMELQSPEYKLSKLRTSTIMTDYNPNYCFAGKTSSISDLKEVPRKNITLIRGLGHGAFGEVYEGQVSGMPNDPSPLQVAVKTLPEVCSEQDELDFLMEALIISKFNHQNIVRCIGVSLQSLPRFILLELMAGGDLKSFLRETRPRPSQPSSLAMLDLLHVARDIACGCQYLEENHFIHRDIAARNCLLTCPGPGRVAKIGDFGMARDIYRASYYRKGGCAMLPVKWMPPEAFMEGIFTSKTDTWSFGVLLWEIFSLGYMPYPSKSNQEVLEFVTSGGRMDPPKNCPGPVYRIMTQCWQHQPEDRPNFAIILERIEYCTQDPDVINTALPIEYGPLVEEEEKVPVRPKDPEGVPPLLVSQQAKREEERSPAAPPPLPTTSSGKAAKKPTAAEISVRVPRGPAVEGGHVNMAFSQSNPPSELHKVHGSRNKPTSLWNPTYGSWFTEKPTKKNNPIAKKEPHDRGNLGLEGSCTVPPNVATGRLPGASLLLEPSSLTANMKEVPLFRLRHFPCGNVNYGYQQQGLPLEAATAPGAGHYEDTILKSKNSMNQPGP

Biological target: ALK (Homo sapiens (Human), UniProt Q9UM73)
Test: Ambit kinase binding assay (ALK)
Settings: read-out: ALK inhibitory activities in the Ambit assay (IC50)

SMILES: CNC(=O)c1ccc(NC(=O)c2cc(OC(C)c3c(Cl)ccc(F)c3Cl)c(N)nn2)cc1 (stereo not shown)
- IC50: 17 nM
